One series can be described thus: Organ exposure in mice. As to conditions: mice IV 3 mg/kg.
The subject of series [1] is MRSA ATCC43300 (Methicillin resistant).
Series [2] deals with chloramphenicol resistant strain.
The nature of series [3]: Mouse plasma pharmacokinetics. Particulars: mice, IV 3 mg/kg single dose.
The test system of series [4] is ciprofloxacin resistant E. faecium.
Series [5] has as its system tetracycline resistant S. aureus.
The test system of series [6] is all the gram-positive species. The series is described as follows: Minimum bactericidal concentration assay, summary. The class given is cell-based. As to the method:
The study was done based on CLSI document M26-A Wayne, PA: Clinical and laboratory standard institute: 1999.
After determination of a MIC in a broth system under standard conditions, measured aliquots of growth media may be sub-cultured quantitatively to solid media to assess bactericidal activity. To calculate the extent of killing at each antibiotic concentration, plates are incubated under appropriate conditions, colony counts are performed and results are compared to that of the growth control well. The accepted definition of the minimum bactericidal concentration (MBC) is the lowest concentration of test compound at which a 99.9% (3 log) or greater reduction in growth compared with the initial inoculum is observed. Minimum bactericidal concentration of compound 1 against all the gram-positive species was not exceeded >2× MIC indicting its bactericidal mode of killing. (Table 4).

In series [7] the test system is macrolide resistant S. aureus.
Series [8] deals with kanamycin resistant strain.
Series [9] relates to vancomycin resistant E. faecium.

Regarding `CC1(C)C2CN(c3ccc4nc5ccc(N6CC7C(C6)C7(C)C)cc5[s+]c4c3)CC21` (centres unmarked) [Compound 1, 3,7-Di(6,6-dimethyl-3-azabicyclo[3.1.0]hexan-N-yl)phenothiazinium iodide], the “Distribution in kidney and heart” value in the series “Organ exposure in mice” is “above the MIC and sufficient to achieve efficacy”. The “Distribution in lungs and liver” value in the series “Organ exposure in mice” is given as “very high”. The “Activity against resistant bacteria in ‘X’ MIC” value in [1], in series [2], in series [4], in [5], in series [7] and in series [8] was 1X ‘X’ MIC throughout. The “Activity against resistant bacteria in ‘X’ MIC” value in series [9] is given as 1X ‘X’ MIC. Also, in series [3], the “AUC and Cmax relative to MIC” value was “more than 10 × MIC”. In [6], the “Minimum bactericidal concentration relative to MIC” value is given as at most 2 × MIC.

The values are drawn from patent US20240300940A1, “Phenothiazinyl Compounds and Uses” (Prosetta Biosciences, Inc., priority 2023, published 2024).
